Test results published in PubChem BioAssay (NCI).
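Cells were grown in 96-well plates and exposed to each compound for 48 hours at five concentrations; endpoints were interpolated linearly between bracketing concentrations, or set to the highest concentration if not reached. TGI: concentration producing complete growth inhibition.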

How the values were obtained:
Test in all cases: NCI anticancer screen, dose series, 48 h
UO-31 renal = test system: UO-31 renal
M14 melanoma = test system: M14 melanoma
CAKI-1 renal = test system: CAKI-1 renal
U251 CNS = test system: U251 CNS
NCI-H23 lung = test system: NCI-H23 lung
SF-268 CNS = test system: SF-268 CNS
LOX IMVI melanoma = test system: LOX IMVI melanoma
RPMI-8226 leukemia = test system: RPMI-8226 leukemia
MCF7 breast = test system: MCF7 breast
IGROV1 ovarian = test system: IGROV1 ovarian
HCT-15 colon = test system: HCT-15 colon
A549 NSCLC = test system: A549 NSCLC
UACC-257 melanoma = test system: UACC-257 melanoma
SN12C renal = test system: SN12C renal
SK-MEL-28 melanoma = test system: SK-MEL-28 melanoma
HOP-62 NSCLC = test system: HOP-62 NSCLC
HS 578T breast = test system: HS 578T breast
NCI-H460 lung = test system: NCI-H460 lung
HCC-2998 colon = test system: HCC-2998 colon
NCI-H322M lung = test system: NCI-H322M lung
ACHN renal = test system: ACHN renal
OVCAR-3 ovarian = test system: OVCAR-3 ovarian
NCI-H226 lung = test system: NCI-H226 lung
SW-620 colon = test system: SW-620 colon
DU-145 prostate = test system: DU-145 prostate
TK-10 renal = test system: TK-10 renal
HL-60(TB) leukemia = test system: HL-60(TB) leukemia
SK-MEL-5 melanoma = test system: SK-MEL-5 melanoma
SF-295 CNS = test system: SF-295 CNS
UACC-62 melanoma = test system: UACC-62 melanoma
COLO 205 colon = test system: COLO 205 colon
SNB-19 CNS = test system: SNB-19 CNS
OVCAR-8 ovarian = test system: OVCAR-8 ovarian
HT29 colon = test system: HT29 colon
KM12 colon = test system: KM12 colon
HCT-116 colon = test system: HCT-116 colon
MDA-N = test system: MDA-N
SNB-75 CNS = test system: SNB-75 CNS
OVCAR-5 ovarian = test system: OVCAR-5 ovarian
MALME-3M melanoma = test system: MALME-3M melanoma
NCI/ADR-RES ovarian = test system: NCI/ADR-RES ovarian
786-0 renal = test system: 786-0 renal
MDA-MB-435 = test system: MDA-MB-435
CCRF-CEM leukemia = test system: CCRF-CEM leukemia
MOLT-4 leukemia = test system: MOLT-4 leukemia
MDA-MB-231 breast = test system: MDA-MB-231 breast
K-562 leukemia = test system: K-562 leukemia
SR leukemia = test system: SR leukemia
SF-539 CNS = test system: SF-539 CNS
RXF 393 renal = test system: RXF 393 renal
EKVX NSCLC = test system: EKVX NSCLC
NCI-H522 lung = test system: NCI-H522 lung

Measured: TGI

CCC1(C)N(C)C(NC#N)=NP1(=O)O (configuration not stated)
> 100 µM: all assays above
